Here are results for 6 compounds from PubChem BioAssay AID1030 (National Center for Advancing Translational Sciences (NCATS), 2008).

Sequences of proteins named here, by UniProt entry; tags and fusion partners are left off.
UniProt P00352, whole entry: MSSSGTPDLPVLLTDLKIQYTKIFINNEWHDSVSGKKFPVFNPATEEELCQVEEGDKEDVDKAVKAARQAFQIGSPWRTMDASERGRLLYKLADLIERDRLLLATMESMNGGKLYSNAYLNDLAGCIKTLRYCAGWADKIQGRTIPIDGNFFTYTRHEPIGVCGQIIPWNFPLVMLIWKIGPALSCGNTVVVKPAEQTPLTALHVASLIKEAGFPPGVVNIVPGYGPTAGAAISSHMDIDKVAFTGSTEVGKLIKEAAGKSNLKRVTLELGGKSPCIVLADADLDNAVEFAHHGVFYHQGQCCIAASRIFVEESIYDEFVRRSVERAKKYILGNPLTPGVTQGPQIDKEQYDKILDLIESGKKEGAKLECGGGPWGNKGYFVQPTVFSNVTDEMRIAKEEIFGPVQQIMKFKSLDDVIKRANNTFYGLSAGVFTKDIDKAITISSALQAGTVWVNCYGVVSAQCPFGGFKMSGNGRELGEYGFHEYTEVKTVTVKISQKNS

This is a selection; strong and weak results do not stand in their true shares. Records with an inconclusive call do not appear. Activity calls are given as the source filed them. The call rests on the fitted dose curve; in most records, active means well fitted inhibition curve with a large enough effect (not every such curve was filed as active); inconclusive means small, poorly fitted or top-dose-only effect, or another doubt; inactive means no such curve, though single readings can be large or run the other way.
Potency means the concentration at half of the fitted maximal effect.

For the test, the target named is Aldehyde dehydrogenase 1A1 (Homo sapiens) (UniProt P00352). The test can be described thus: qHTS Assay for Inhibitors of Aldehyde Dehydrogenase 1 (ALDH1A1).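 On activity, negative = inhibition: plate controls were no enzyme wells and a reference inhibitor.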 The note with it: Purified ALDH1A1, NADH fluorescence, propionaldehyde substrate; series mostly up to 75.3 µM; activity, negative = inhibition: at the top concentration. Background: qHTS replaces the single test concentration by a dilution series.
Take `COc1ccc(NC2CCN(C(=O)OC(C)(C)C)CC2)cc1`: the Potency is active: 8.91 µM.

Take `O=C(OC1CN2CCC1CC2)c1ccc([N+](=O)[O-])cc1` (stereo unspecified): the “activity, negative = inhibition” value was inactive: -10.8%. Same read-out and setting: for `NC1CCCCC1.NP(=O)(O)N(CCCl)CCCl` the value was inactive: 17.1% [at 13.5 µM]. Consider `N/C(=N\O)c1c(N)no[n+]1[O-]`, for which the “activity, negative = inhibition” value was inactive: 3.18%. Turning to `ClP(Cl)(Cl)(Cl)Cl`, the Potency was active: 2.51 µM.

With `CCOC(=O)C(CC)C1=NC(C)(C)Cc2ccccc21.O=[N+]([O-])c1cc([N+](=O)[O-])c(O)c([N+](=O)[O-])c1` (stereo unspecified), the “activity, negative = inhibition” value is inactive: -0.218%.
